Sampled rows, rich in hits. Any-hit rate of the full collection: about 3.7%.
ClpP mod – qHTS Assay for Activators of ClpP. ATP-dependent Clp protease proteolytic subunit (Bacillus subtilis (strain 168)), P80244. purified B. subtilis ClpP, FRET peptide cleavage, 20 min. Potency, µM (highest dose often 57.5 µM), for the others: top-dose activity change, negative = active. actives 1.9% (n = 340,000); active means well fitted falling curve with a large enough effect; inconclusive means small, poorly fitted or top-dose-only effect; inactive means no such curve, though single readings can be large or run the other way; further: potency means the concentration at half of the fitted maximal effect; the source files actives as falling curves though it sought activators and does not explain the sign; nearly all actives have a fitted effect of over 65% in size
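Purified B. subtilis ClpP, 10 microg/mL final in Tris/HCl pH8 with KCl, BSA, glycerol and Tween-20, cleaved an Abz/nitrotyrosine-quenched decapeptide. Fluorescence (ex 320, em 430) was read at 0 and 20 min at room temperature. Delta was normalized to 5.8 microM ADEP and DMSO/no-enzyme controls.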
p53 reactivation – restores transcriptional activity of mutant p53; H1299 p53-A138V BP100-luciferase reporter, luminescence, 24 h; actives 0.063% (n = 320,000); Potency, µM (series often up to 92.2 µM), for inactives: top-dose activity change, positive = activation, usual class: activators; further: potency means the concentration at half of the fitted maximal effect; % of control where 0% means no effect; nearly all actives have a fitted effect of over 45% in size
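H1299 (p53-null), stable ts p53-A138V + BP100-Luc; 1000 cells/well, Opti-MEM/10% FBS; cpd 4 pt, 1:5; 24 h, 37 deg C, 5% CO2; detection reagent 10 min RT; luminescence.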
A549 tox – counter-screen for Nrf2 inhibitors: cytotoxicity in A549 cells; A549 ARE-Fluc cells, CellTiter-Fluor viability, 18-24 h; Potency, µM (top dose mostly 46 µM), without a hit: at the highest dose activity change, negative = cytotoxicity, hits mostly inhibitors; actives 0.16% (n = 390,000); AID 504648; further: potency means the concentration at half of the fitted maximal effect; on the % scale 0 is the no-effect control and ±100 the full control effect
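Cytotoxicity counterscreen: CellTiter-Fluor fluorescence was measured in A549 ARE_Fluc cells after 18-24 h of compound exposure in a concentration series. The subsequent BugLite luminescent read reports ARE-luciferase activity.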
miR-21 reporter – raises the signal of a miR-21 reporter | HeLa miR-21 FLuc reporter, luciferase, 48 h | Potency, µM (highest dose often 38.3 µM), inactives show at the highest dose reporter change, positive = more light | 340,000 tested, under 10 active | AID 2288; active = well fitted rising curve with a large enough effect; inconclusive = small, poorly fitted or top-dose-only effect; inactive = no such curve, though single readings can be large or run the other way;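 note: % of control where 0% means no effect; miR-21 action dims this reporter so a rising signal means less miR-21 action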
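Compounds were titrated across several concentrations (up to approximately 40 uM) and incubated 48 hours with HeLa miR-21-FLuc reporter cells (miR-21 target sequence downstream of FLuc, endogenous miR-21). Readout was firefly luciferase luminescence after lytic detection reagent.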
Nrf2 ARE act – Nrf2 pathway activation. Potency, µM (doses to about 46.1 µM), inactives show at the top dose activation, usual class: activators. AID 624171. actives 0.31% (n = 410,000). AREc32 ARE-luciferase reporter (MCF7-derived line), luminescence, 24 h; further: potency means the concentration at half of the fitted maximal effect; % of control where 0% means no effect; nearly all actives have a fitted effect of over 65% in size
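ARE activation measured as luciferase luminescence (Steady-Glo, 30 min RT) in AREc32_Fluc cells after 24 hr compound exposure at 37 deg C, 5% CO2; cells seeded overnight at 1000/well in OPTI-MEM, 5% FBS.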
Nrf2 block – Nrf2 pathway inhibition | A549 ARE-Fluc reporter, luciferase luminescence, 18-24 h | Potency, µM (series often up to 46 µM), for the others: top-dose activity change, negative = inhibition, most hits filed as inhibitors | AID 504444 | actives 2.1% (n = 360,000); further: potency means the concentration at half of the fitted maximal effect; on the % scale 0 is the no-effect control and ±100 the full control effect; nearly all actives have a fitted effect of over 60% in size
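Concentration-response testing used A549 ARE_Fluc cells at 5000 cells/well. Following an 18-24 h compound incubation, viability was read by fluorescence (Ex 405/Em 525) and luciferase output by luminescence.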
ClpP inh valid – inhibits B. subtilis ClpP protease, hit validation; actives 40% (n = 470); purified B. subtilis ClpP, FRET-FV substrate cleavage, 20 min; shares compounds with ClpP mod; Potency, µM (titrated, usually from 57.5 µM), for the others: at the top dose activity change, negative = inhibition, usual class: inhibitors; further: potency means the concentration at half of the fitted maximal effect; on the % scale 0 is the no-effect control and ±100 the full control effect; nearly all actives have a fitted effect of over 70% in size
Starred values were filed as active, the others as inactive; ? = inconclusive; · = no result; [ ] = dose if it differs, or a comment. Unless noted, the call rests on the fitted dose curve; in most records, active means well fitted curve in the direction sought with a large enough effect; inconclusive means small, poorly fitted or top-dose-only effect, or another doubt; inactive means no such curve, though single readings can be large; an effect the other way counts as inactive or inconclusive.

no. | SMILES | ClpP mod | p53 reactivation | A549 tox | miR-21 reporter
1 | COc1ccc(-c2nc3ccccc3s2)cc1NC(=O)c1ccc(F)cc1 | 89% | · | -18% | -6%
2 | CC(C)(C)C(=O)Nc1ccc(-c2nc3ccccc3s2)cc1 | 10µM* | · | 1% | ?
3 | Cc1ccc(C)c(Nc2nc3c(S(=O)(=O)c4ccccc4)nnn3c3ccccc23)c1 | 55% | 3% | 2% | -5%
4 | Cc1ccc(S(=O)(=O)c2nnn3c2nc(Nc2cccc(C)c2)c2ccccc23)cc1 | -15% | -4% | 2% | 4%
5 | O=S(=O)(c1ccc(OC(F)(F)F)cc1)N1CCN(c2nc(-c3ccccc3)nc3ccccc23)CC1 | -21% | · | 0% | ·
6 | O=C(CC1SC(N2CCCCC2)=NC1=O)Nc1ccc(C(=O)NCc2ccccc2)cc1 (stereo not given) | 0% | 6% | -4% | ·
7 | COc1cccc(CNC(=O)c2ccc(NC(=O)CC3SC(N4CCCC4)=NC3=O)cc2)c1 (stereo not given) | 2.8µM* | -5% | 1% | ·
8 | CC(C)Cc1nc(C(N)=O)c2[nH]c(=O)n(-c3ccc(F)cc3)c2n1 | 6% | -3% | -8% | -2%
9 | Cc1cccc(-n2c(=O)[nH]c3c(C(N)=O)nc(CC(C)C)nc32)c1 | 10µM* | -2% | -4% | -3%
10 | COc1ccccc1N(C)S(=O)(=O)c1ccc(C(=O)NCCCN2CCCC2=O)cc1 | -5% | · | · | ·

no. | Nrf2 ARE act | Nrf2 block | ClpP inh valid
1 | 4% | ? | 22µM*
2 | -3% | 2.6µM* | -1%
3 | 0% | ? | 22µM*
4 | 0% | -13% | ·
5 | · | 29% | ·
6 | -1% | -21% | ·
7 | -1% | 3% | 0%
8 | 0% | 6% | ·
9 | 3% | -3% | 4.9µM*
10 | 0% | · | ·

Further structures follow.
no. | SMILES | ClpP mod | p53 reactivation | A549 tox | miR-21 reporter
11 | COc1ccc(N2C(=O)NC3CC2(C)Oc2ccc(Br)cc23)cc1OC (stereo not given) | 177% | -13% | -4% | 13%
12 | COc1ccc(N2C(=O)NC3CC2(C)Oc2ccccc23)cc1 (stereo not given) | · | 3% | -6% | -1%
13 | CCOc1ccc(-n2nc3ccc(NC(=O)c4ccc5c(c4)OCCO5)cc3n2)cc1 | 8.9µM* | -18% | 15% | -2%
14 | CCc1ccc(-n2nc3ccc(NC(=O)c4ccc5c(c4)OCO5)cc3n2)cc1 | 3.2µM* | -3% | -9% | -3%
15 | CCOc1ccc(NC(=O)c2cc3c(-c4ccccc4F)nn(C)c3s2)cc1 | 188% | · | 12% | -7%
16 | N=c1oc2ccccc2cc1-c1nc(-c2ccc(Cl)cc2)cs1 | ? | 26% | -5% | -3%
17 | O=c1oc2ccccc2cc1-c1nc(-c2cccc(Cl)c2)cs1 | 4.5µM* | · | 7% | 0%
18 | COc1cc(CCC(N)c2cccc(O)c2)cc(OC)c1OC (stereo not given) | 222% | · | -3% | ·
19 | CC(C)CNC(=O)NC1C(NC(=O)NCC(C)C)N(C)C(=O)N1C (stereo not given) | 44% | -1% | -2% | 6%
20 | CCC(C)NC(=O)NC1C(NC(=O)NC(C)CC)N(C)C(=O)N1C (stereo not given) | -2% | 8% | -4%[1.84 µM] | 1%

no. | Nrf2 ARE act | Nrf2 block | ClpP inh valid
11 | 1% | · | 0%
12 | 0% | 4% | ·
13 | 0% | ? | ?
14 | -1% | -21% | -14%
15 | 0% | 34% | ?
16 | ? | 6% | ·
17 | 28% | · | ?
18 | 0% | -2% | ·
19 | -1% | · | 0%
20 | -1% | -7% | ·

Look-ups from the list.
Value for no. 11 in Nrf2 ARE act: 1%
Value for no. 15 in A549 tox: 12%
Value for no. 17 in A549 tox: 7%
Value for no. 16 in A549 tox: -5%

Further records
no. | SMILES | ClpP mod | p53 reactivation | A549 tox | miR-21 reporter
21 | COc1ccc(NC(=O)c2oc3ccccc3c2NC(=O)Cc2ccc(F)cc2)c(OC)c1 | 4% | · | -1% | -1%
22 | CCOc1ccccc1CNC(=O)c1cnc2sc(N3CCCC3)nn2c1=O | 7.9µM* | · | 11% | 2%
23 | Cc1cccc(N2CCN(CCCNc3ncnc4onc(-c5ccc(Cl)cc5)c34)CC2C)c1 (stereo not given) | -1% | · | -13% | -6%
24 | Cc1cc(N2CCN(C)CC2)n2cc(-c3ccc(F)cc3)nc2n1 | 7.1µM* | 4% | 1% | -6%
25 | Cc1cc(N2CCN(c3ccc(F)cc3)CC2)n2cnnc2n1 | 2% | · | 0% | 1%
26 | COC(=O)c1ccc(NC(=O)C2CCN(c3ncnc4c3nc3n4CCCCC3)CC2)cc1 | -1% | · | -13% | -10%
27 | COc1ccccc1NC(=O)c1sc2nc(N3CCOCC3)c3c(c2c1N)CCCC3 | 8.9µM* | 19% | 1% | -12%
28 | Cc1ccccc1NC(=O)c1sc2nc(N3CCOCC3)c3c(c2c1N)CCCC3 | 4% | 0% | 13% | -37%
29 | c1ccc(C2Nc3ccccc3-c3nc4ccccc4n32)nc1 (stereo not given) | 7.1µM* | -4% | -17% | -13%
30 | c1ccc(C2Nc3ccccc3-c3nc4ccccc4n32)cc1 (stereo not given) | 61% | ? | ? | -6%

no. | Nrf2 ARE act | Nrf2 block | ClpP inh valid
21 | 1% | 5% | ·
22 | 1% | ? | 0%
23 | 1% | ? | ·
24 | -1% | -20% | 27µM*
25 | -1% | -14% | ·
26 | -1% | ? | ·
27 | -1% | ? | ?
28 | 4% | -6% | ·
29 | 3% | -15% | 19µM*
30 | 5% | ? | ·

Overlap with the part before: three entries, then new ones.
no. | SMILES | ClpP mod | p53 reactivation | A549 tox | miR-21 reporter
28 | Cc1ccccc1NC(=O)c1sc2nc(N3CCOCC3)c3c(c2c1N)CCCC3 | 4% | 0% | 13% | -37%
29 | c1ccc(C2Nc3ccccc3-c3nc4ccccc4n32)nc1 (stereo not given) | 7.1µM* | -4% | -17% | -13%
30 | c1ccc(C2Nc3ccccc3-c3nc4ccccc4n32)cc1 (stereo not given) | 61% | ? | ? | -6%
31 | O=C(Nc1cccc(Cl)c1)c1nc[nH]c1C(=O)NCc1ccccc1 | 213% | -8% | -1% | ·
32 | O=C(Nc1ccccc1)c1nc[nH]c1C(=O)NCc1ccccc1 | 1% | -2% | -3% | ·
33 | O=C(c1nc2nc(-c3cccs3)cc(C(F)(F)F)n2n1)N1CCN(Cc2ccccc2)CC1 | 2.5µM* | -4% | 1% | -14%
34 | CCOC(=O)c1nc2nc(-c3cccs3)cc(C(F)(F)F)n2n1 | ? | 2% | -2% | -6%
35 | Cc1ccc(NS(=O)(=O)c2cccc(C(=O)N3CCCCC3)c2)cc1 | 77% | -2% | 0% | ·
36 | Cc1ccc(NS(=O)(=O)c2cccc(C(=O)N3CCCCCC3)c2)cc1 | 0% | -3% | -3% | ·
37 | COc1ccccc1NC(=O)CN1CCCCC1 | 4µM* | -5% | 1% | -6%
38 | COc1ccccc1NC(=O)c1ccc(NC(=O)CN2CCCCC2)cc1 | · | -3% | -8% | ·
39 | COc1ccccc1NC(=O)c1cc2c(=O)n(C)c3ccccc3c2n1C | ? | -3% | 0% | 4%
40 | COc1cccc(NC(=O)c2cc3c(=O)n(C)c4ccccc4c3n2C)c1 | 216% | · | 0% | 1%

no. | Nrf2 ARE act | Nrf2 block | ClpP inh valid
28 | 4% | -6% | ·
29 | 3% | -15% | 19µM*
30 | 5% | ? | ·
31 | 4% | -16% | ?
32 | -2% | ? | ·
33 | 4% | -16% | 24µM*
34 | 3% | 9% | ·
35 | 0% | -13% | 0%
36 | 0% | -23% | ·
37 | 0% | · | 0%
38 | 2% | -27% | ·
39 | 0% | ? | ·
40 | -1% | 6% | 22µM*

Screens as filed in PubChem BioAssay.
